Ab-95 light chain CDR variants: yeast mating affinities

Target: peptide PDVDLGDISGINAS, taken from heptad repeat 2 (HR2) of SARS-CoV-2 spike.

Parent scFv Ab-95: VH joined to VL by the linker GGGGSGGGGSGGGGS. Changes lie in the light chain CDRs alone.
VH: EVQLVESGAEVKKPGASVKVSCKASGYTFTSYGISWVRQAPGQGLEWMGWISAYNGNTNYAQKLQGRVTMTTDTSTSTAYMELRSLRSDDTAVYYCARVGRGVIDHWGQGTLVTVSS
VL: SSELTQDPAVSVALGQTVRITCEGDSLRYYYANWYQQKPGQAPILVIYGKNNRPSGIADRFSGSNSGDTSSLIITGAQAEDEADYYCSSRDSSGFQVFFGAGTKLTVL

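Phage display of a naive human antibody library on the peptide gave the parent. Variants in AAYL52 differ from the parent at up to three CDR positions; double and triple changes were sampled at random. The assay is AlphaSeq: two haploid yeast populations carry antibody and antigen on their surface. The frequency of each diploid, read from paired DNA barcodes, reflects how well the two displayed proteins bind. Each replicate has its own calibration line, from reference interactions of the BCL2 family. Each pool was mated in three replicate cultures.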

Each variant's VL is given in full. This list gathers variants with a substitution at R90 (VL, numbered from residue 1). Kd is apparent (estimated from mating counts) and averaged on the log scale over replicates with a signal. Smaller is tighter. An entry "nd" has no value in the source: the pair was not observed among the diploids in any replicate. This suggests poor binding but is not conclusive.

The variant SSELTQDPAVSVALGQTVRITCEGDSLRYYYANWYQQKPGQAPILVIYGKNNTKSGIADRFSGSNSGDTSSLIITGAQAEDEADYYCSSWDSSGFQVFFGAGTKLTVL gave nd (0 of 3 replicates; controls 2 of 9). The variant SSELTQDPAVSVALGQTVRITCEGDSLRYYYANWYQQKPGQAPILVIYGKNSRPSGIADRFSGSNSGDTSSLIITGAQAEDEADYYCSSDDSSGFQGFFGAGTKLTVL gave 240 nM (3 of 3 replicates; controls 2 of 9). For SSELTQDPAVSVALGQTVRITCEGDSLRYFYANWYQQKPGQAPILVIYGKNNRPSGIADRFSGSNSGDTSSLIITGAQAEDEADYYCSSVDSSGFQFFFGAGTKLTVL, the assay gave 4.0 µM (3 of 3 replicates; controls 3 of 9). The variant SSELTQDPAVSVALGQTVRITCEGDSLRYYYANWYQQKPGQAPILVIYGENGRPSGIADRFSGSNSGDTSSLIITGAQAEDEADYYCSSMDSSGFQVFFGAGTKLTVL gave 410 nM (3 of 3 replicates; controls 3 of 9). The variant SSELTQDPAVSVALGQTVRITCEGDSLRYYYFNWYQQKPGQAPILVIYGKNNNPSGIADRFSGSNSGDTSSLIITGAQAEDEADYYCSSFDSSGFQVFFGAGTKLTVL gave 1.5 µM (3 of 3 replicates; controls 2 of 9). For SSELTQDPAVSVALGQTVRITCEGDSLRYYYANWYQQKPGQAPILVIYGNNNRPSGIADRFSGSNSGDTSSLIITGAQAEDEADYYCSSNDSSGFQVFFGAGTKLTVL, the assay gave 160 nM (3 of 3 replicates; controls 4 of 9).

The variant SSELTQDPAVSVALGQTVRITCEGDSLAYYYANWYQQKPGQAPILVIYGKNNRPSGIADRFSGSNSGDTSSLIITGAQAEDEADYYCSSPDSYGFQVFFGAGTKLTVL gave 6.8 µM (1 of 3 replicates; controls 6 of 9). With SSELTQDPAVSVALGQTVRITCEGDSLRYYYANWYQQKPGQAPILVIYGKNNRHSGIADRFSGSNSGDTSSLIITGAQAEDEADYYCASWDSSGFQVFFGAGTKLTVL the result was 27 µM (1 of 3 replicates; controls 4 of 9). The variant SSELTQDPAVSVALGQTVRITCEGDSDRYYYANWYQQKPGQAPILVIYGKNNRPSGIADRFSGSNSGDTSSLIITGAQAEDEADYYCSSWDKSGFQVFFGAGTKLTVL gave 2.4 µM (1 of 3 replicates; controls 2 of 9). For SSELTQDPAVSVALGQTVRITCEGDSLRYYYAAWYQQKPGQAPILVIYGKNNRPNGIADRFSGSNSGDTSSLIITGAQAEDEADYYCSSSDSSGFQVFFGAGTKLTVL, the assay gave nd (0 of 3 replicates; controls 0 of 9). The variant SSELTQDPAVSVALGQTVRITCMGDSLRYYYANWYQQKPGQAPILVIYGINNRPSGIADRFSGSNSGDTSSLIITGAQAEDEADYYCSSHDSSGFQVFFGAGTKLTVL gave 780 nM (3 of 3 replicates; controls 3 of 9). For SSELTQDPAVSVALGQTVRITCETDSLRYYYATWYQQKPGQAPILVIYGKNNRPSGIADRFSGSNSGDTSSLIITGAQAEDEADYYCSSSDSSGFQVFFGAGTKLTVL, the assay gave 93 µM (1 of 3 replicates; controls 2 of 9).

The variant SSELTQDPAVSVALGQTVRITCEGDSLRYYGANWYQQKPGQAPILVIYGKNNRPSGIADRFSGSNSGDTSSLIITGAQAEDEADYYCSSADSSPFQVFFGAGTKLTVL gave 720 nM (3 of 3 replicates; controls 5 of 9). For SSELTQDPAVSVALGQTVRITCEGDSLRYYYENWYQQKPGQAPILVIYGKNNRPSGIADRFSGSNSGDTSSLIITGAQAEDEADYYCSSGDSSGFQVAFGAGTKLTVL, the assay gave 15 µM (1 of 3 replicates; controls 1 of 9). The variant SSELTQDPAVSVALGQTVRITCEGDSLRYRYANWYQQKPGQAPILVIYGKNNRPSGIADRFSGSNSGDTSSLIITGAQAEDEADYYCSAHDSSGFQVFFGAGTKLTVL gave 140 nM (3 of 3 replicates; controls 5 of 9). The variant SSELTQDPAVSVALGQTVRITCGGDSLRYYYANWYQQKPGQAPILVIYGKNNRPSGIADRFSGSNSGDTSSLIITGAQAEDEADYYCSCEDSSGFQVFFGAGTKLTVL showed 41 µM (1 of 3 replicates; controls 1 of 9). For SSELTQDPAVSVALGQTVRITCEGDSLRYYYANWYQQKPGQAPILVIYGKNNRNSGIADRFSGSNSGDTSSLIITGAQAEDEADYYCSSDDSSIFQVFFGAGTKLTVL, the assay gave nd (0 of 3 replicates; controls 0 of 9). For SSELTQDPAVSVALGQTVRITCEGDSLRYYIANWYQQKPGQAPILVIYGKNNRPSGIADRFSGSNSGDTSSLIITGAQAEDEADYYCSSWDSVGFQVFFGAGTKLTVL, the assay gave 1.6 µM (3 of 3 replicates; controls 2 of 9).

The variant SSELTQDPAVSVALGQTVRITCEGFSLRYYYANWYQQKPGQAPILVIYGKNNRPSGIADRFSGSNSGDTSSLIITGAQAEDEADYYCSSADSSGFLVFFGAGTKLTVL showed 800 nM (3 of 3 replicates; controls 2 of 9). The variant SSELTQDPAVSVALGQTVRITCYGDSLRYYYKNWYQQKPGQAPILVIYGKNNRPSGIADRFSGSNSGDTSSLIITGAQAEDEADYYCSSLDSSGFQVFFGAGTKLTVL gave nd (0 of 3 replicates; controls 0 of 9). With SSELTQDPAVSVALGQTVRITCEGDSLRYYYANWYQQKPGQAPILVIYGKNNRPSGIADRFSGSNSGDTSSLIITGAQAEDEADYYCSSMWSSGFQIFFGAGTKLTVL the result was 5.9 µM (1 of 3 replicates; controls 3 of 9). The variant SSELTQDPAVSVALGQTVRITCEGDSLRYYYANWYQQKPGQAPILVIYGKNNRPSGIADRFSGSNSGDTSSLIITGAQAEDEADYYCASMDSSGGQVFFGAGTKLTVL gave 300 nM (3 of 3 replicates; controls 3 of 9). With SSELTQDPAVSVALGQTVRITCEGLSLRYYYANWYQQKPGQAPILVIYGKNNRPSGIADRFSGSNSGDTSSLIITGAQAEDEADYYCSSHDSSGHQVFFGAGTKLTVL the result was 160 µM (1 of 3 replicates; controls 3 of 9). With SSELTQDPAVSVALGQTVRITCEGDSLRYTNANWYQQKPGQAPILVIYGKNNRPSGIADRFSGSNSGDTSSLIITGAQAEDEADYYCSSIDSSGFQVFFGAGTKLTVL the result was 360 µM (1 of 3 replicates; controls 3 of 9).

The variant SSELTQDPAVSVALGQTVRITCEGDSLRYYYANWYQQKPGQAPILVIYGKNYRPSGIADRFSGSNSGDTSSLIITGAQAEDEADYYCSSADSSGCQVFFGAGTKLTVL gave 4.6 µM (1 of 3 replicates; controls 2 of 9). The variant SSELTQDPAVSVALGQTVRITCEGDSLRYYYHNWYQQKPGQAPILVIYGKNNRCSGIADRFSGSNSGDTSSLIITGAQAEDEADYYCSSDDSSGFQVFFGAGTKLTVL showed nd (0 of 3 replicates; controls 3 of 9).

Repeated from above, the 2 best binders with a signal in all replicates:

For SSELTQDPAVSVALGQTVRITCEGDSLRYRYANWYQQKPGQAPILVIYGKNNRPSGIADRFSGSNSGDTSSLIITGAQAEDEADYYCSAHDSSGFQVFFGAGTKLTVL, the assay gave 140 nM (3 of 3 replicates; controls 5 of 9).
For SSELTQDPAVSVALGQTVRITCEGDSLRYYYANWYQQKPGQAPILVIYGNNNRPSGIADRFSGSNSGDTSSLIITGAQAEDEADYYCSSNDSSGFQVFFGAGTKLTVL, the assay gave 160 nM (3 of 3 replicates; controls 4 of 9).

Parent in this assay: reference entry 200 nM, copy in this library 180 nM. Background: pairings of library AAYL52 with three empty control strains gave a value in 28% of cases (median 8.2 µM, 5th percentile 800 nM). Values in that range, when seen in few replicates, are hard to tell from nonspecific mating. For each scFv, signals with the empty controls are counted beside the result.

Data: MIT Lincoln Laboratory AlphaSeq set, Engelhart et al. 2022, doi:10.1038/s41597-022-01779-4, as distributed in FLAb.